# Activity calls are given as the source filed them. The calls are words filed in the database; no cut-off is given here.
# Experiments:
# Homo sapiens [1] = organism: Homo sapiens
# Homo sapiens [2] = organism: Homo sapiens; remark: listed apart in the source
Compound,Log EC50 (Homo sapiens [1]),Log EC50 (Homo sapiens [2])
Oc1ccc(CC2CNC=N2)cc1O (racemic),Not activity,
Cl.Oc1ccc(Cc2ncc[nH]2)cc1O,,inactive
Oc1ccc(CC2=NCCN2)cc1O,,Not activity
Oc1ccc(CC2=NCCN2)c(F)c1O,,inactive
Oc1cc(CC2=NCCN2)cc(F)c1O,,inactive
Oc1ccc(C[C@H]2CNC=N2)cc1O,,Not activity
Oc1cc(F)c(CC2=NCCN2)cc1O,,inactive
